Measurements reported in US20210293786A1, “Method Relating to Evaluation of Tumor Tissue of Experimental Animal” (KONICA MINOLTA, INC., priority 2016, published 2021).

What was measured:
[1] = tested on: breast cancer tissues collected from a patient with breast cancer (HER2 score +3), transplanted in PDX mice; assay: Efficacy of Trastuzumab in second-generation (P2) PDX mice, groups stratified by CD140a PID score of the P1 mice (Example 1-1); format: in vivo, mouse; conditions: 15 mg/kg i.v.; for Drug efficacy: Day 21; for Tumor volume: group average on Day 21 relative to that when administered (100)
[2] = tested on: breast cancer tissues collected from a patient with breast cancer (HER2 score +3), transplanted in PDX mice; assay: Efficacy of Trastuzumab in second-generation (P2) PDX mice, groups stratified by CD140a DAB score and further by HER2 score of the P1 mice (Examples 1-2, 2-1, 2-2); format: in vivo, mouse; conditions: for Drug efficacy: Day 21; for Tumor volume: Day 21 relative to that when administered (100)
[3] = group P2-3 (from P1-3, CD140a PID particles 100000-150000)
[4] = group P2-4 (from P1-4, CD140a PID particles >150000)
[5] = group P2-5-4 (P1-5, CD140a 0-10%, HER2 PID particles per cell <500)
[6] = group P2-6-2 (P1-6, CD140a 10-20%, HER2 DAB ≤2+)
[7] = group P2-6-4 (P1-6, CD140a 10-20%, HER2 PID particles per cell <500)
[8] = group P2-7 (from P1-7, CD140a DAB score 20-30%)
[9] = group P2-7-1 (P1-7, CD140a 20-30%, HER2 DAB 3+)
[10] = group P2-7-2 (P1-7, CD140a 20-30%, HER2 DAB ≤2+)
[11] = group P2-7-4 (P1-7, CD140a 20-30%, HER2 PID particles per cell <500)
[12] = group P2-8 (from P1-8, CD140a DAB score >30%)
[13] = group P2-8-2 (P1-8, CD140a >30%, HER2 DAB ≤2+)
[14] = group P2-8-3 (P1-8, CD140a >30%, HER2 PID particles per cell ≥500)
[15] = group P2-8-4 (P1-8, CD140a >30%, HER2 PID particles per cell <500)

With Trastuzumab the Drug efficacy ([1]; group P2-1 (from P1-1, CD140a PID particles 0-50000)) was “AA (AA, a tumor volume of <200)”, the Drug efficacy ([1]; group P2-2 (from P1-2, CD140a PID particles 50000-100000)) was “AA (AA, a tumor volume of <200)” and the Drug efficacy [1, 3] was “BB (BB, a tumor volume of 200 to 400)”. For the same substance, the Tumor volume [1, 3] was 252, the Drug efficacy [1, 4] was “CC (CC, a tumor volume of 400 to 600)” and the Tumor volume [1, 4] was 408. For the same substance, the Drug efficacy ([2]; group P2-5 (from P1-5, CD140a DAB score 0-10%)) was “AA (AA, a tumor volume of <200)”, the Drug efficacy ([2]; group P2-5-1 (P1-5, CD140a 0-10%, HER2 DAB 3+)) was “AA (AA, a tumor volume of <200)” and the Drug efficacy ([2]; group P2-5-3 (P1-5, CD140a 0-10%, HER2 PID particles per cell ≥500)) was “AA (AA, a tumor volume of <200)”. The Drug efficacy [2, 5] was “AA (AA, a tumor volume of <200)”, the Tumor volume [2, 5] was 192 and the Drug efficacy ([2]; group P2-6 (from P1-6, CD140a DAB score 10-20%)) was “AA (AA, a tumor volume of <200)”. For the same substance, the Drug efficacy ([2]; group P2-6-1 (P1-6, CD140a 10-20%, HER2 DAB 3+)) was “AA (AA, a tumor volume of <200)”, the Drug efficacy [2, 6] was “BB (BB, a tumor volume of 200 to 400)” and the Tumor volume [2, 6] was 340. For the same substance, the Drug efficacy ([2]; group P2-6-3 (P1-6, CD140a 10-20%, HER2 PID particles per cell ≥500)) was “AA (AA, a tumor volume of <200)”, the Drug efficacy [2, 7] was “BB (BB, a tumor volume of 200 to 400)” and the Tumor volume [2, 7] was 280. The Drug efficacy [2, 8] was “BB (BB, a tumor volume of 200 to 400)”, the Tumor volume [2, 8] was 252 and the Drug efficacy [2, 9] was “BB (BB, a tumor volume of 200 to 400)”. For the same substance, the Tumor volume [2, 9] was 212, the Drug efficacy [2, 10] was “BB (BB, a tumor volume of 200 to 400)” and the Tumor volume [2, 10] was 392. For the same substance, the Drug efficacy ([2]; group P2-7-3 (P1-7, CD140a 20-30%, HER2 PID particles per cell ≥500)) was “AA (AA, a tumor volume of <200)”, the Drug efficacy [2, 11] was “CC (CC, a tumor volume of 400 to 600)” and the Tumor volume [2, 11] was 516. The Drug efficacy [2, 12] was “CC (CC, a tumor volume of 400 to 600)”, the Tumor volume [2, 12] was 408 and the Drug efficacy [2, 13] was “DD (DD, a tumor volume of >600)”. For the same substance, the Tumor volume [2, 13] was 658, the Drug efficacy [2, 14] was “BB (BB, a tumor volume of 200 to 400)” and the Tumor volume [2, 14] was 207. For the same substance, the Drug efficacy [2, 15] was “DD (DD, a tumor volume of >600)” and the Tumor volume [2, 15] was 609.
